# Test results reported in PMC4234457, “Primary porcine proximal tubular cells as an alternative to human primary renal cells in vitro: an initial characterization” (BMC Cell Biology, 2013).
# Tested on: Oat1 or Oat3
# Assay: Transporter induction experiments (RT-PCR of transporter mRNA in PKC)
# Type: cell-based, porcine
# Settings: 50 nM or 1 μM to basolateral compartment, 48 hours
compound,measurement,value
C[C@]12CC[C@H]3[C@@H](CCC4=CC(=O)CC[C@@]43C)[C@@H]1CC[C@@H]2O [testosterone],Stimulatory effect on transporter mRNA expression,none of the tested substances showed any stimulatory effect
